The values below come from ChEMBL document CHEMBL2163302, “Allyl m-trifluoromethyldiazirine mephobarbital: an unusually potent enantioselective and photoreactive barbiturate general anesthetic” (J Med Chem, 2012).

By UniProt entry, the sequences of proteins in these tests, tags left out. Where a name states a change or a piece, a line headed by the entry shows the natural chain unless it says otherwise.
UniProt P14867: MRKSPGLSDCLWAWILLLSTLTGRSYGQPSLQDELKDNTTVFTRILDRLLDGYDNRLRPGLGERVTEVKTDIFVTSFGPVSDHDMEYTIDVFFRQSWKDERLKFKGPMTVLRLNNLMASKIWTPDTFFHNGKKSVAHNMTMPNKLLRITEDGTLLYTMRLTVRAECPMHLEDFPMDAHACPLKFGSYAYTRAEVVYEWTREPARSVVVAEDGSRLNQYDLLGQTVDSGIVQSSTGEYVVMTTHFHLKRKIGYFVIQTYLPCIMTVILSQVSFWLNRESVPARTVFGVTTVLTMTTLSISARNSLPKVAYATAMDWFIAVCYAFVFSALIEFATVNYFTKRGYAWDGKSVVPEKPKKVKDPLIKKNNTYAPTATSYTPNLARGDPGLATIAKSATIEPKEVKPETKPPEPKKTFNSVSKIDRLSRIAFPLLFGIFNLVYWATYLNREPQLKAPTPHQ
UniProt P47870: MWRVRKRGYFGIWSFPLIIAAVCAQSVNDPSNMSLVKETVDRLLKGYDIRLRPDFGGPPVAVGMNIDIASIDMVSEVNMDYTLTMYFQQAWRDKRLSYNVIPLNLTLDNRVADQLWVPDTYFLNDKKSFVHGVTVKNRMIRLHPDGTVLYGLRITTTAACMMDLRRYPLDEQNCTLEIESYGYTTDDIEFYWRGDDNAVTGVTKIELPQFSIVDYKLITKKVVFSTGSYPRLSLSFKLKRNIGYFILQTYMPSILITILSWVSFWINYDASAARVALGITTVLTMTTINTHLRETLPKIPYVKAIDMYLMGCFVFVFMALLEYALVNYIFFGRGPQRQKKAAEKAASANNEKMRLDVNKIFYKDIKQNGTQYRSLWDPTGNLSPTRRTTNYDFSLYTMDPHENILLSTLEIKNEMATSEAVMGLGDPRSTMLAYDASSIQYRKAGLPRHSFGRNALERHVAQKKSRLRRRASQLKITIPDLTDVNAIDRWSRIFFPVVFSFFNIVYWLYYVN
UniProt P18507: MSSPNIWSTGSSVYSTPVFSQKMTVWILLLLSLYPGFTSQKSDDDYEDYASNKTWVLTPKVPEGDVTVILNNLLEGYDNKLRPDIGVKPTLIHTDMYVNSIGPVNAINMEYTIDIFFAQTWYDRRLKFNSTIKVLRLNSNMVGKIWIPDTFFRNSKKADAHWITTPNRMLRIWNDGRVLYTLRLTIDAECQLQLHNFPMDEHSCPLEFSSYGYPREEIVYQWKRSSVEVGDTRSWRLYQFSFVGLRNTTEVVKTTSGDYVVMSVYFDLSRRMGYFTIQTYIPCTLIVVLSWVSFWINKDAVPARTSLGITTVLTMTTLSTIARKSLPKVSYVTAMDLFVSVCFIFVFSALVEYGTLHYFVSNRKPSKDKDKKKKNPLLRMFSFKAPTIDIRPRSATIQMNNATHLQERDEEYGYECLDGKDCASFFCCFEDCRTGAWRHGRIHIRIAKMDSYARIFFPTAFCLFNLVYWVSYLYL

The assay has as its target GABA-A receptor; alpha-1/beta-2/gamma-2 (Homo sapiens) (UniProt P14867+P47870+P18507). As to the kind of experiment: Activation of human alpha1beta2gamma2L GABA A receptor expressed in Xenopus laevis oocytes assessed as increase in GABA-induced current response at 65 uM by two-electrode voltage clamp assay relative to untreated control. The assay is classed as cell-based. Particulars: Oocyte.

For the molecule `CCCC(C)C1(CC)C(=O)NC(=O)NC1=O` (stereo unspecified) [PENTOBARBITAL], the fold change (FC) stood at 4.
